This is an account of results in ChEMBL document CHEMBL1944561, “Discovery and SAR exploration of a novel series of imidazo[4,5-b]pyrazin-2-ones as potent and selective mTOR kinase inhibitors” (Bioorg Med Chem Lett, 2011).

Each structure is given as a SMILES string.

The nature of this test: Selectivity ratio of IC50 for GSK3alpha to IC50 for mTOR.

For the compound `CC(C)(O)c1ccc(-c2cnc3[nH]c(=O)n(CC4CCCCC4)c3n2)cc1`, the Ratio IC50 was > 20.
